In patent US20030215462A1, “Use of UGT inhibitors to increase bioavailability” (priority 2001, published 2003):

Tests used:
UGT1A3 = molecular target: T1, UGT1A3 (Homo sapiens, UniProt P35503); test: Inhibition of raloxifene glucuronidation by recombinant UGT1A3 Supersomes
T1 sequence (P35503 29-534): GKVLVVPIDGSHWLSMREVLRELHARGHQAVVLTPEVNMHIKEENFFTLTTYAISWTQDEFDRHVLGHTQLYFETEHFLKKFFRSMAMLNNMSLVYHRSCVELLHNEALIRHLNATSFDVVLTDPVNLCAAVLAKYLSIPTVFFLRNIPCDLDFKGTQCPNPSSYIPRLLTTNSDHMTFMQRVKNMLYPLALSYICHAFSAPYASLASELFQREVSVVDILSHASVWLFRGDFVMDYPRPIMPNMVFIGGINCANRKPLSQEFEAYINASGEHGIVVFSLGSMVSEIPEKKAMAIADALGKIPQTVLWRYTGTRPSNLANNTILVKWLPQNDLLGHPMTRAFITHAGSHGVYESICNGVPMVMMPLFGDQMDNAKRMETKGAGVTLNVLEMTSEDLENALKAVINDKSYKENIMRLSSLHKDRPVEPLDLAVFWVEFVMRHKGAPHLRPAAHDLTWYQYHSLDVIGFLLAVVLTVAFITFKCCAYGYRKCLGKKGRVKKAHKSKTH

UGT1A9 = molecular target: T2, UGT1A9 (Homo sapiens, UniProt O60656); test: Inhibition of raloxifene glucuronidation by recombinant UGT1A9 Supersomes
T2 sequence (O60656 26-530): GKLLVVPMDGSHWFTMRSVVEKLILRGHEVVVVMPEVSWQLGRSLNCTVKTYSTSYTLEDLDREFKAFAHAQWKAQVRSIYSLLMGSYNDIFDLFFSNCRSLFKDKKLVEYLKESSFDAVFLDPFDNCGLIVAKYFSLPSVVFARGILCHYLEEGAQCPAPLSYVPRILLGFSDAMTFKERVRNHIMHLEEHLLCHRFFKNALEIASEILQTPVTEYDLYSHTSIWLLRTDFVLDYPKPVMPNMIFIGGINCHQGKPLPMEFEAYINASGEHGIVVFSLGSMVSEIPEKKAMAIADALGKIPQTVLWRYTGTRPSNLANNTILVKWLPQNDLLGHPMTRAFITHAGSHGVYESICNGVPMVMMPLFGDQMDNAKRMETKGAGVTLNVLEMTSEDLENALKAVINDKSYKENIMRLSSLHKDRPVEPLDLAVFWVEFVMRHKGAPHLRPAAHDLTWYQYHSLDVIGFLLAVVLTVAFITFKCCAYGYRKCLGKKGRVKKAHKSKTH

[1] = HIV-infected patients; cited from earlier work

SMILES	inhibition of raloxifene glucuronidation, in words (UGT1A3)	inhibition of raloxifene glucuronidation, in words (UGT1A9)	increase in zidovudine plasma AUC on co-administration [1] [fold]
O=C(O)Cc1ccccc1Nc1c(Cl)cccc1Cl [Diclofenac, reference compound]	poor inhibitors	poor inhibitors	–
CCCC(CCC)C(=O)O [Valproic acid]	–	–	2
